How the values were obtained:
[1] = 37° C., estimated half-life; for t1/2 human plasma α: α position ester; for t1/2 human plasma β: β position ester
[2] = β position ester; 10 mM KH2PO4 buffered saline pH 7.4, 37° C., 100 to 200 μM prodrug; estimated half-life, pseudo-first-order

| Substance | t1/2 human plasma α [1] [min] | t1/2 human plasma β [1] [min] | t1/2 buffered saline (pH 7.4) β [2] [min] |
| --- | --- | --- | --- |
| L-N-oleoyl-alanyl-lamivudine | 12.0 ± 1.1 | 5.4 ± 0.7 |  |
| L-N-oleoyl-lysyl-lamivudine |  | 8.0 ± 0.1 | 467.0 ± 7.2 |
| D-N-oleoyl-lysyl-lamivudine | 22.3 ± 2.8 | 7.9 ± 1.6 | 452.0 ± 9.1 |

From US20100240883A1, “Lipid-drug conjugates for drug delivery” (priority 2009, published 2010)
